Drawing on patent US20250214976A1, “GPR35 MODULATORS AND USES THEREOF” (Crossignal Therapeutics, Inc., priority 2022, published 2025), this text covers IC50 for one compound.

By UniProt entry, the sequences of proteins in these tests, tags left out.
UniProt Q9HC97, whole entry: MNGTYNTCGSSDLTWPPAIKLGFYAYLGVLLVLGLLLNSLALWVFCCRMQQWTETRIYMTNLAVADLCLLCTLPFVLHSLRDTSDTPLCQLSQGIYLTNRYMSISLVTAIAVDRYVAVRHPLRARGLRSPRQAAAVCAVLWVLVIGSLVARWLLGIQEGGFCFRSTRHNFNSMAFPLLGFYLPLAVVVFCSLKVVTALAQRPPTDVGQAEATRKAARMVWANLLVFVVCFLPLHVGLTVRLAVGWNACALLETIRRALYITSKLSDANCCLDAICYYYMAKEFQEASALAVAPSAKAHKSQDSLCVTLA

The target in the test is human GPR35 (Homo sapiens, UniProt Q9HC97). Put plainly: Luciferase Reporter Assay (YAP responsive element) in HEK293 cells stably transfected with human GPR35. The note with it: read-out: Luciferase Reporter (IC50), overnight incubation. How it is done:
HEK293 cells stably transfected with human GPR35 were maintained in Dulbecco's Modified Eagle Medium (DMEM) supplemented with 10% FBS and 300 μg/mL Zeocin and 200 μg/mL Hygromycin at 37° C., 10% CO2. On Day 1, cells were plated in poly-D-lysine coated 96-well tissue culture plate in regular growth medium (DMEM/10% FBS/300 μg/mL Zeocin/200 μg/mL Hygromycin. On the next day, luciferase reporter plasmid DNA with YAP responsive element was transfected into cells using lipofectamine 2000 (Invitrogen) following manufacture's protocol. After transfection for 6 hr., cells were treated with testing compounds in fasting DMEM medium (phenol red free, FBS free) at varying compound concentrations ranging from 10 μM to […] in a 3-fold serial diluted fashion. After an overnight incubation, the luciferase activities were measured with SteadyLite Plus Kit (PerkinElmer) according to manufacturer's protocol. IC50 was determined by fitting the dose-response data to a four-parameter logistic curve using GraphPad Prism.
The symbol “+” indicates IC50 is greater than […]. “++” indicates IC50>100 nM but ≤[…]. “+++” indicates IC50≤100 nM.
Background: In a reporter assay the amount or activity of a reporter protein is the signal.

pIC50: −log10 of the molar value. Where only a bound is given, the exact number is not on record here.

One may read the pIC50 as the IC50 on a negative log10 scale, so that one unit is a factor of ten. Take `O=C(Nc1ccc(OC2CC(F)(F)C2)c(F)c1)c1coc2cc(Oc3nnn[nH]3)c(F)cc12`: the pIC50 was greater than 7.00.
